Reference: ChEMBL document CHEMBL6153125, “Harnessing the Magic Methyl Effect: Discovery of CLPP-2068 as a Novel HsClpP Activator for the Treatment of Diffuse Large B-Cell Lymphoma” (J Med Chem, 2025)

Experiments:
Format in all cases: functional, cell-based
OCI-Ly10 [1] = experiment: Induction of mitochondrial ROS production in human OCI-Ly10 cells at 6.25 to 250 nM measured after 39 hrs incubation by MitoSOX Red assay; settings: dose 6.25-250 nM
OCI-Ly10 [2] = experiment: Induction of apoptosis in human OCI-Ly10 cells assessed as apoptotic cells at 125 nM measured after 36 hrs incubation by PI and Annexin V-FITC analysis
OCI-Ly10 [3] = experiment: Induction of apoptosis in human OCI-Ly10 cells assessed as apoptotic cells at 250 nM measured after 36 hrs incubation by PI and Annexin V-FITC analysis
OCI-Ly10 [4] = experiment: Induction of apoptosis in human OCI-Ly10 cells assessed as apoptotic cells at 62.5 nM measured after 36 hrs incubation by PI and Annexin V-FITC analysis

Measured: Activity

O=C1C2=C(CCN(Cc3ccccc3)C2)N2CCN=C2N1Cc1ccc(C(F)(F)F)cc1
active: OCI-Ly10 [1] Dose-dependent-effect | OCI-Ly10 [2] | OCI-Ly10 [3] | OCI-Ly10 [4]

The source made the active and inactive calls.
